Measured affinities in a library of Ab-14 light chain variants

From the AlphaSeq antibody data of Li et al. 2023 (doi:10.1038/s41467-023-39022-2), copy in the FLAb collection.

Target: peptide PDVDLGDISGINAS, taken from heptad repeat 2 (HR2) of SARS-CoV-2 spike.

Parent scFv Ab-14: VH joined to VL by the linker GGGGSGGGGSGGGGS. Changes lie in the light chain CDRs alone.
VH: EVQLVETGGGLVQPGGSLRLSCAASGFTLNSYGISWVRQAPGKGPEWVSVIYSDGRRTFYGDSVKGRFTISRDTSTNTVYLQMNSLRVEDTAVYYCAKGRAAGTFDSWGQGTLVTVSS
VL: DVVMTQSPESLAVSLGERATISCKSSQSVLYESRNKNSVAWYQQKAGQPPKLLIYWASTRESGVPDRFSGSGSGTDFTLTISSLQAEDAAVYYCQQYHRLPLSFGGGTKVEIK

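Phage display of a naive human antibody library on the peptide gave the parent. Designed CDR sequences, proposed from the first random library and measured here. Their group label is 14L_En_Gibbs (En: ensemble of fine-tuned language models; Gibbs: Gibbs sampling). In AlphaSeq, yeast of one mating type display the scFv and yeast of the other type display the target. Mating (16 h, 30 °C) was followed by selection of diploids and sequencing of their barcodes. Read counts were normalised to the haploid input and turned into Kd by a linear fit to BCL2-family pairs of known affinity, for each replicate. The assay was run in six technical replicates.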

Variants are written as CDR1, CDR2 and CDR3 of the light chain (limits as in the source). Parent: KSSQSVLYESRNKNSVA, WASTRES, QQYHRLPLS.
Scale: log10 of Kd in nM, estimated from mating counts; low values are strong binders.
The mean shown is taken over the replicates in which the pair was detected.
A pair that was not seen in that replicate is written "nd"; this usually means weak binding, but a binder can also be missed.

| # | CDR-L1 | CDR-L2 | CDR-L3 | log10 Kd (nM) by replicate | log10 Kd (nM), mean | empty controls |
|---|---|---|---|---|---|---|
| 1 | KIEQLLFPYGPSWHSIA | NANTLLA | QQYYMLPLM | 1.69 / nd / 1.53 / nd / nd / 1.87 | 1.70 | 0 of 18 |
| 2 | NLNDSDMYMPQMTDNIA | QDTLRNE | QQYAKLPLS | 2.26 / 1.06 / 0.46 / 0.89 / 1.98 / 0.96 | 1.27 | 1 of 18 (2.51) |
| 3 | KISDMMQTDMGRVSAVA | DDDVAND | QQYARLPLA | 1.60 / 1.61 / 0.69 / 0.61 / 1.02 / 1.71 | 1.21 | 1 of 18 (2.24) |
| 4 | RISYEQFGNTYSVNNVA | QASVRAP | QMYQRLPLV | 0.78 / 1.00 / 1.11 / 1.23 / 1.04 / 1.10 | 1.04 | 0 of 18 |
| 5 | NMQLQVRNGNNNKYNIA | AEMLREY | QQYNRLPLS | 1.38 / 1.35 / 1.99 / 1.31 / 1.35 / 1.74 | 1.52 | 1 of 18 (1.55) |
| 6 | NLVQMKSVGDYNAGNVA | AGNQRSV | QQYNRLPLI | 0.30 / 0.12 / 0.32 / 0.48 / 0.29 / 0.44 | 0.32 | 2 of 18 (2.15) |
| 7 | QMTGQLFEQGNRSEPIA | HESMKET | QQYFQLPLT | nd / 2.26 / 1.55 / 2.44 / 2.01 / 3.60 | 2.37 | 1 of 18 (2.48) |
| 8 | QITHNQLDYKNREANIA | HESMRLV | QQYSQLPLT | 1.67 / 1.18 / 2.19 / 1.09 / 2.22 / 2.73 | 1.85 | 1 of 18 (2.64) |
| 9 | VMFMGLYWNNDEHYAIA | DVTMREK | QQYHRLPLQ | 1.05 / 0.97 / 0.81 / 1.36 / 0.73 / 0.49 | 0.90 | 3 of 18 (2.51) |
| 10 | NLSIEMSYYYENRYSIA | DMTVREY | QHYSRIPLA | 3.11 / 2.16 / 1.99 / nd / nd / 2.76 | 2.50 | 1 of 18 (3.18) |
| 11 | KLDMYELGYSQLSSSVA | GSANKCQ | QQYFRLPLS | 0.34 / -0.10 / -0.44 / 0.05 / -0.40 / -0.06 | -0.10 | 1 of 18 (1.88) |
| 12 | SMFEKEYEELQPENNIA | DETERMV | QQYFRLPLL | nd / nd / nd / nd / 1.67 / nd | 1.67 | 0 of 18 |
| 13 | KFSYVYEMVNTAKESIA | DAHTVQM | QQYSRLPLA | 1.04 / 0.49 / 0.74 / 0.98 / 0.89 / 0.86 | 0.83 | 0 of 18 |
| 14 | KLHAYTQGFKRADASIA | EISYRAI | QQYGRLPLS | 2.07 / nd / 1.79 / nd / 2.36 / 2.51 | 2.18 | 0 of 18 |
| 15 | QLDWYNTYATASASNVA | DVAQRAN | QQYMRLPLM | 0.10 / 0.00 / 0.06 / -0.08 / 0.05 / 0.16 | 0.05 | 3 of 18 (4.12) |
| 16 | AFTNSIFYGQRDDNSIA | HADELVK | QQYDRFPLA | nd / nd / nd / nd / nd / nd | nd | 1 of 18 (1.44) |
| 17 | FMEMDFDGNSVNHNSIA | SSEVVTR | QHYARLPLS | nd / nd / nd / nd / nd / nd | nd | 0 of 18 |
| 18 | HVPNYPENFTSAKQNIA | DQSARTS | QQYDRLPLA | 2.43 / 1.94 / 2.74 / 1.31 / 2.99 / 2.56 | 2.33 | 0 of 18 |
| 19 | KLNSDSVLQWNINNSVA | EMSEVVQ | QQYVHLPLM | 1.61 / 1.64 / 1.07 / 0.96 / 1.72 / 1.49 | 1.42 | 1 of 18 (2.26) |
| 20 | SVTIEMDQQQEQYNSVA | GEQKTVD | QQYGRLPLS | nd / nd / nd / nd / nd / nd | nd | 1 of 18 (1.53) |
| 21 | KLGEQGGHSMDHANNIA | EVDMLDQ | QQYMHLPLI | 0.73 / 0.32 / 0.59 / 0.13 / 0.52 / 0.85 | 0.52 | 0 of 18 |
| 22 | HIDILNRGEDLKQDPIA | QADHREQ | QQYFHLPLA | 0.89 / 0.86 / 1.13 / 1.28 / 1.19 / 0.62 | 1.00 | 0 of 18 |
| 23 | SLTAHHEEAKRAENSVA | EAVMLES | QQYHQLPLM | 1.16 / 1.88 / 1.73 / nd / 1.47 / 1.04 | 1.46 | 0 of 18 |
| 24 | KLKYQADHYGMNQGNVA | QADIRAP | QQYNKLPLN | nd / nd / 0.95 / nd / nd / nd | 0.95 | 1 of 18 (1.84) |
| 25 | SVTNETDGNGLKWNSVA | DAAEAMT | QQYFRLPLT | 0.46 / 1.34 / 2.03 / nd / 1.22 / 0.78 | 1.17 | 0 of 18 |
| 26 | KIRWQQYDQSEMEANIA | QESTRHQ | QQYFRLPLS | 1.51 / 0.85 / 0.77 / 1.02 / 1.27 / 0.82 | 1.04 | 1 of 18 (2.43) |
| 27 | KLDLLNGEMDIGGDSIA | EVSTAGM | QQYWRLPLS | 2.03 / 1.52 / 1.74 / 1.45 / 1.52 / 2.31 | 1.76 | 4 of 18 (2.52) |
| 28 | KLYYSSVGEVNGSHSIA | ETDQLTF | QQYSHLPLS | 2.34 / 1.89 / 2.48 / 1.60 / 2.21 / 2.15 | 2.11 | 4 of 18 (2.99) |
| 29 | RLWQQMYGFNIHKNAIA | EGKERTW | QQYGRLPLS | nd / nd / nd / nd / nd / nd | nd | 0 of 18 |
| 30 | SLEPFEYQIMKDLNNIA | NTQVRAN | QQYMRLPIM | 1.06 / 2.25 / 1.29 / 1.66 / 1.17 / 1.30 | 1.45 | 0 of 18 |
| 31 | ALTAHRQVAIEAKNSIA | NAVMRYQ | QQYAQLPLM | 1.54 / 1.72 / 2.01 / 2.57 / 0.92 / -0.07 | 1.45 | 0 of 18 |
| 32 | KLDSAYQHGTNQKSAMA | SASVSTQ | QQYSRLPLS | 0.66 / 0.85 / 0.36 / 0.76 / 0.53 / 0.74 | 0.65 | 1 of 18 (3.12) |
| 33 | ALELFEMQMMKDINSIA | NTEYKTN | QQYVRLPFS | 1.17 / 0.21 / 0.54 / 0.67 / 1.16 / 1.20 | 0.82 | 1 of 18 (2.32) |
| 34 | QLMGQGDHSIEHANSIA | NVDIVDM | QQYAHLPLS | 1.20 / 1.39 / 1.09 / 1.05 / 1.18 / 1.58 | 1.25 | 0 of 18 |
| 35 | SMYPFEVAIGEGTQNVA | HVSVRAL | QQYFRLPLV | 0.70 / 0.38 / 0.78 / nd / 0.89 / 1.26 | 0.80 | 2 of 18 (1.88) |

Top 2 of the variants detected in all replicates, tightest first:

CDR-L1	CDR-L2	CDR-L3	log10 Kd (nM) by replicate	log10 Kd (nM), mean	empty controls
KLDMYELGYSQLSSSVA	GSANKCQ	QQYFRLPLS	0.34 / -0.10 / -0.44 / 0.05 / -0.40 / -0.06	-0.10	1 of 18 (1.88)
QLDWYNTYATASASNVA	DVAQRAN	QQYMRLPLM	0.10 / 0.00 / 0.06 / -0.08 / 0.05 / 0.16	0.05	3 of 18 (4.12)

Empty control strains, which show no peptide, gave a signal in 4% of pairings with all light chain designs; the median was 2.64 and 95% of these signals were weaker than 1.59. No background was subtracted. Also given: how often the same scFv was detected with the empty control strains, with their mean in brackets.
The authors averaged sequences with at least three values out of six and counted those with two or fewer as poor binders.
Of ten entries with the parent sequence, four were seen in most replicates (averages 0.34 to 2.37), three in one and three in none, so single entries are noisy.
The range of this assay differs from that of the first round, and the authors advise against merging the two.